The results in this text go back to US20240350588A1 (SUNSHINE LAKE PHARMA, published 2024).

In the assay the target is T1, human GFRAL (UniProtKB-Q6UXVO) (human, UniProt Q6UXV0 19-394).
T1 sequence (looked up): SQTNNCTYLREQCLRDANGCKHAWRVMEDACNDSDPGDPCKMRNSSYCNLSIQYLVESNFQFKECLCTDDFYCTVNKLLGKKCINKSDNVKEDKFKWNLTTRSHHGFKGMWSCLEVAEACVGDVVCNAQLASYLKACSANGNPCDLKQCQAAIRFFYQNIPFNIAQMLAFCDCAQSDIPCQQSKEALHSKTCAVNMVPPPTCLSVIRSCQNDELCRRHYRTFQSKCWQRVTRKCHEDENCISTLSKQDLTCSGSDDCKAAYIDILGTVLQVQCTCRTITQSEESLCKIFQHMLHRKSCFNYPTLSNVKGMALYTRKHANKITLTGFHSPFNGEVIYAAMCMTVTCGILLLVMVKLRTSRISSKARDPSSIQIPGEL
Kind of assay: cell-based or functional assay.

B1: Fc-GDF15 fusion protein M16 (Fc fusion)
chain: GPSVFLFPPKPKDTLMISRTPEVTCVVVDVSQEDPEVQFNWYVDGVEVHNAKTKPREEQFNSTYRVVSVLTVLHQDWLNGKEYKCKVSNKGLPSSIEKTISKAKGQPREPQVYTLPPSQEEMTKNQVSLTCLVKGFYPSDIAVEWESNGQPENNYKTTPPVLDSDGSFFLYSRLTVDKSRWQEGNVFSCSVMHEALHNHYTQESLSLSLGGGGGSGGGGSAPAPAPAPAPAPAPAPAPAPGGGGSGGGGSDHCPLGPGRCCRLHTVRASLEDLGWADWVLSPREVQVTMCIGACPSQFRAANMHAQIKTSLHRLKPDTVPAPCCVPASYNPMVLIQKTDTGVSLQTYDDLLAKDCHCI
As for B1, the “Relative activity ratio (native GDF15 EC50: Fc-GDF15 construct EC50), ERK1/2 phosphorylation HTRF in HEK293T cells expressing human GFRAL and RET” value is 2.03 ratio.

B2: Fc-GDF15 fusion protein M15 (Fc fusion)
chain: GGPSVFLFPPKPKDTLMISRTPEVTCVVVDVSQEDPEVQFNWYVDGVEVHNAKTKPREEQFNSTYRVVSVLTVLHQDWLNGKEYKCKVSNKGLPSSIEKTISKAKGQPREPQVYTLPPSQEEMTKNQVSLTCLVKGFYPSDIAVEWESNGQPENNYKTTPPVLDSDGSFFLYSRLTVDKSRWQEGNVFSCSVMHEALHNHYTQESLSLSLGGGGGSGGGGSAPAPAPAPAPAPAPAPAPAPGGGGSGGGGSDHCPLGPGRCCRLHTVRASLEDLGWADWVLSPREVQVTMCIGACPSQFRAANMHAQIKTSLHRLKPDTVPAPCCVPASYNPMVLIQKTDTGVSLQTYDDLLAKDCHCI
In the case of B2, the “Relative activity ratio (native GDF15 EC50: Fc-GDF15 construct EC50), ERK1/2 phosphorylation HTRF in HEK293T cells expressing human GFRAL and RET” value came to 2.79 ratio.
